Source: PubChem BioAssay AID2546 (National Center for Advancing Translational Sciences (NCATS), 2010)
This is a selection; strong and weak results do not stand in their true shares. Inconclusive results are not listed. Activity calls are given as the source filed them. Calls follow the shape of the dose curve; as a rule, active = well fitted inhibition curve with a large enough effect; inconclusive = small, poorly fitted or top-dose-only effect, or effect the other way; inactive = flat fitted curve, though single readings scatter.

test: VP16 counterscreen qHTS for inhibitors of ROR gamma transcriptional activity; details: Drosophila S2 Gal4-VP16 UAS-luciferase, luminescence, 20 h; at 53.6 µM (top of the series);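 also: Gal4-VP16 expression switched on by copper sulfate through the metallothionein promoter; nearly all actives have a fitted effect of over 50% in size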
% is scaled to controls: 0 for no effect and ±100 for the full control effect.

Row | Structure (SMILES) | activity, negative = inhibition
1 | O=[N+]([O-])c1cc([N+](=O)[O-])c(CCN2CCOCC2)c([N+](=O)[O-])c1 | inactive: -8.28%
